Measurements published in patent publication US9872861B2, “Methods of treatment using selective Bcl-2 inhibitors” (AbbVie Inc., priority 2010, dated 2018).

Protein sequences, listed by entry. Tags and fused reporters are not part of them.
UniProt P10415, whole entry: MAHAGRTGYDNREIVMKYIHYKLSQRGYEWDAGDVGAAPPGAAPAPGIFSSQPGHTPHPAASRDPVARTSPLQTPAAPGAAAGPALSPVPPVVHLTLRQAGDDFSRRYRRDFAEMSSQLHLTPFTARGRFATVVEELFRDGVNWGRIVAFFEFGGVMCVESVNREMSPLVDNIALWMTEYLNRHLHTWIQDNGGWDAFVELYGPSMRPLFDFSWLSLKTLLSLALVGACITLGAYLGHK

Molecular target: Bcl-2 (Homo sapiens, UniProt P10415)
Assay: TR FRET competitive binding affinity, Bcl-2
Conditions: read-out: Target Affinity TR FRET, Bcl-2
Protocol: A comparison of the binding affinity for each of the compounds was performed to determine target affinity, as measured by Time-Resolved Fluorescence Resonance Energy Transfer (TR FRET).

## CN1CCN(Nc2ccc(S(=O)(=O)NC(=O)c3ccc(N4CCN(CC5=C(c6ccc(Cl)cc6)CC(C)(C)CC5)CC4)cc3Oc3cnc4[nH]ccc4c3)cc2[N+](=O)[O-])CC1 [Compound 10, 4-(4-{[2-(4-chlorophenyl)-4,4-dimethylcyclohex-1-en-1-yl]methyl}piperazin-1-yl)-N-({4-[(4-methylpiperazin-1-yl)amino]-3-nitrophenyl}sulfonyl)-2-(1H-pyrrolo[2,3-b]pyridin-5-yloxy)benzamide]
  Ki: 0.02 nM
